# In patent US10611777B2, “Imidazopyridazine compounds and their use” (HUTCHISON MEDIPHARMA LIMITED, priority 2014, dated 2020):
# System: SU-DHL-6 cell line
# Assay: In vitro cell proliferation assay in SU-DHL-6 cell line
# Assay type: cell-based
# Conditions: Homo sapiens; SU-DHL-6, 72 h, CCK-8
smiles,measurement,value
"C[C@H](Nc1ncnc(N)c1C#N)c1cc2ncc(Cl)n2nc1-c1ccccc1 [Compound 4, (S)-4-amino-6-((1-(3-chloro-6-phenylimidazo[1,2-b]pyridazin-7-yl)ethyl)amino)pyrimidine-5-carbonitrile]",IC50,1 nM
